Source: paper PMC5148701 (Journal of medicinal chemistry, 2016)

System: HEK293T cells expressing the GloSensor-22F alone (no hD2R)

## CCCN1CCC[C@@H]2Cc3n[nH]cc3C[C@H]21 [quinpirole]
  nonspecific cAMP inhibition in cells not expressing D2R: no inhibition
